# Assay results as given in paper PMC8958505, “Discovery of Potential Neuroprotective Agents against Paclitaxel-Induced Peripheral Neuropathy” (Journal of Medicinal Chemistry, 2022).
# Structures can show the parent of a compound that is named as a salt.
# Experiments:
# [1] = system: Sodium Channel, Site 2; experiment: LeadProfilingScreen: Sodium Channel, Site 2; type: binding, rat; conditions: 10 μM
# [2] = target: Bradykinin B2 (Homo sapiens, UniProt P30411); experiment: LeadProfilingScreen: Bradykinin B2; type: binding
# [3] = target: T1, CYP 2C19 (Homo sapiens, UniProt P33261); experiment: Cytochrome P450 testing, CYP 2C19; type: in vitro ADME; conditions: mephenytoin 4-hydroxylation; read-out: Concentration of inhibition (IC50), CYP 2C19
# T1 construct: host or cells: baculovirus-infected insect cells (supersomes)
# Description: (§1) Cytochrome P450 testing of CN016
# (§2) The effects of CN016 on the activity of six specific human liver cytochrome P450 isozymes (CYP 1A2, 2C9, 2C19, 2D6, 2E1, 3A4) expressed in baculovirus-infected insect cell supersomes were studied. The reactions used to measure the activity of these enzymes were phenacetin O-deethylation (1A2), diclofenac 4-hydroxylation (2C9), mephenytoin 4-hydroxylation (2C19), dextromethorphan O-demethylation (2D6), chlorzoxazone 6-hydroxylation (2E1) and testosterone 6-hydroxylation (3A4).
# (§3) Furafylline, sulfaphenazole, tranylcypromine, quinidine, diethyldithiocarbamate and azamulin were used as reference inhibitors of these enzymes. Incubation mixtures containing no CN016 or reference inhibitors were used as controls. The tested result […]
# (§4) Table S4. Result of Cytochrome P450 testing of CN016
# [4] = target: Glutamate, NMDA, Glycine (Rattus norvegicus, UniProt P35439); experiment: LeadProfilingScreen: Glutamate, NMDA, Glycine; type: binding
# [5] = target: Neuropeptide Y Y2 (Homo sapiens, UniProt P49146); experiment: LeadProfilingScreen: Neuropeptide Y Y2; type: binding
# [6] = target: Histamine H3 (Homo sapiens, UniProt Q9Y5N1); experiment: LeadProfilingScreen: Histamine H3; type: binding
# [7] = system: Glutamate, NMDA, Phencyclidine; experiment: LeadProfilingScreen: Glutamate, NMDA, Phencyclidine; type: binding, rat; conditions: 10 μM
# [8] = target: Adenosine A1 (Homo sapiens, UniProt P30542); experiment: LeadProfilingScreen: Adenosine A1; type: binding
# [9] = target: Adrenergic β2 (Homo sapiens, UniProt P07550); experiment: LeadProfilingScreen: Adrenergic β2; type: binding; conditions: read-out: Inhibition (%), Adrenergic β2
# Description: (§5) LeadProfilingScreen (Total # of Assays: 67)
# (§6) To evaluate, in LeadProfilingScreen, the activity of test compound CN168 (Panlabs # 1251879). […]
# (§7) Summary of Significant Results
# (§8) Biochemical assay results are presented as the percent inhibition of specific binding or activity throughout the report.
# (§9) All other results are expressed in terms of that assay's quantitation method.
# (§10) • For primary assays, only the lowest concentration with a significant response judged by the assays' criteria, is […]
# (§11) • Where applicable, either the secondary assay results with the lowest dose/concentration meeting the significance […]
# (§12) • Unless otherwise requested, primary screening in duplicate with quantitative data (e.g., IC50 ± SEM, Ki ± SEM and nH) are shown where applicable for individual requested assays. In screening packages, primary screening in duplicate with semi-quantitative data (e.g., estimated IC50, Ki and nH) are shown where applicable (concentration range of 4 log units); available secondary functional assays are carried out ([…]) and MEC or MIC determined only if active in primary assays >50% at 1 log unit below initial test concentration. […]
# [10] = target: Bradykinin B1 (Homo sapiens, UniProt P46663); experiment: LeadProfilingScreen: Bradykinin B1; type: binding
# [11] = system: Calcium Channel L-Type, Benzothiazepine; experiment: LeadProfilingScreen: Calcium Channel L-Type, Benzothiazepine; type: binding, rat; conditions: 10 μM
# [12] = system: Imidazoline I2, Central; experiment: LeadProfilingScreen: Imidazoline I2, Central; type: binding, rat; conditions: 10 μM
# [13] = target: Serotonin (5-Hydroxytryptamine) 5-HT2B (Homo sapiens, UniProt P41595); experiment: LeadProfilingScreen: Serotonin 5-HT2B; type: binding; conditions: read-out: Inhibition (%), Serotonin (5-Hydroxytryptamine) 5-HT2B
# Description: as §5, §6, §7, §8, §9, §10, §11, §12
# [14] = target: Adrenergic α2A (Homo sapiens, UniProt P08913); experiment: LeadProfilingScreen: Adrenergic α2A; type: binding
# [15] = target: Muscarinic M1 (Homo sapiens, UniProt P11229); experiment: LeadProfilingScreen: Muscarinic M1; type: binding
# [16] = system: Purinergic P2X; experiment: LeadProfilingScreen: Purinergic P2X; type: binding, rat; conditions: 10 μM
# [17] = target: GABAB1A (Homo sapiens, UniProt Q9UBS5); experiment: LeadProfilingScreen: GABAB1A; type: binding
# [18] = target: Dopamine D4.4 (Homo sapiens, UniProt P21917); experiment: LeadProfilingScreen: Dopamine D4.4; type: binding
# [19] = target: Adrenergic α1A (Homo sapiens, UniProt P35348); experiment: LeadProfilingScreen: Adrenergic α1A; type: binding
# [20] = target: T2, CYP 2E1 (Homo sapiens, UniProt P05181); experiment: Cytochrome P450 testing, CYP 2E1; type: in vitro ADME; conditions: chlorzoxazone 6-hydroxylation; read-out: Concentration of inhibition (IC50), CYP 2E1
# T2 construct: host or cells: baculovirus-infected insect cells (supersomes)
# Description: as §1, §2, §3, §4
# [21] = system: paclitaxel-induced neuropathy in C57BL/6 mice; experiment: von Frey filament test (mechanical) in paclitaxel-induced neuropathy; type: in vivo, mouse
# Description: Three behavioral models of paclitaxel-induced neuropathy were used to verify the neuroprotective effect of CN016. Namely, thermal and mechanical nociceptive reactions described below were evaluated by tail immersion and von Frey filament tests, respectively, and motor coordination was assessed with the rotarod performance test (Supporting Information, Figure S1A,B). To mimic the clinical therapeutic regimen, CN016 (5, 10 and 20 mg/kg) was administrated to 7-week-old female C57BL/6 mice by intraperitoneal injection (IP) 1 h prior to each injection of paclitaxel (4.5 mg/kg) on four alternate days (days 1, 3, 5, and 7). Each test’s basal level was recorded before treatment, and additional sessions of behavior tests were performed weekly for five weeks (Figure 4A).
# The baseline of every neurological behavior test was measured in 6-week-old C57BL/6J female mice prior to treatment. […] Mechanical hyperalgesia was evaluated by using von Frey filament (#2390, IITC Inc., USA), thermal sensitivity was determined by the tail immersion assay (water temperature: 48–49 °C), and motor coordination was assessed by rotarod (#7750, Ugo Basile Biological Research Apparatus, Italy). After the first drug implantation, the body weight was recorded every 6 days throughout the entire experiment.
# [22] = target: Interleukin IL-1 R1 (Homo sapiens, UniProt P14778); experiment: LeadProfilingScreen: Interleukin IL-1 R1; type: binding
# [23] = target: T3, CYP 2D6 (Homo sapiens, UniProt P10635); experiment: Cytochrome P450 testing, CYP 2D6; type: in vitro ADME; conditions: dextromethorphan O-demethylation; read-out: Concentration of inhibition (IC50), CYP 2D6
# T3 construct: host or cells: baculovirus-infected insect cells (supersomes)
# Description: as §1, §2, §3, §4
compound,measurement,setting,value
"O=P(O)(O)CCN1CCC(Nc2cc(N3CCOCC3)nc(NCc3cn(CCCO)nn3)n2)CC1 [CN016, {2-[4-(2-{[1-(3-Hydroxy-propyl)-1H-[1,2,3]triazol-4-ylmethyl]-amino}-6-morpholin-4-yl-pyrimidin-4-ylamino)-piperidin-1-yl]-ethyl}-phosphonic Acid Hydrobromide Salt]","Inhibition (%), Sodium Channel, Site 2",[1],-1%
same,inhibition at 10 µM,[2],-4%
same,IC50,[3],> 100 µM
same,inhibition at 10 µM,[4],-5%
same,inhibition at 10 µM,[5],10%
same,inhibition at 10 µM,[6],2%
same,"Inhibition (%), Glutamate, NMDA, Phencyclidine",[7],-4%
same,inhibition at 10 µM,[8],-9%
same,inhibition at 10 µM,[9],-4%
same,inhibition at 10 µM,[10],-10%
same,"Inhibition (%), Calcium Channel L-Type, Benzothiazepine",[11],-13%
same,"Inhibition (%), Imidazoline I2, Central",[12],-5%
same,inhibition at 10 µM,[13],10%
same,inhibition at 10 µM,[14],-4%
same,inhibition at 10 µM,[15],5%
same,"Inhibition (%), Purinergic P2X",[16],-9%
same,inhibition at 10 µM,[17],14%
same,inhibition at 10 µM,[18],12%
same,inhibition at 10 µM,[19],-9%
same,IC50,[20],> 100 µM
same,alleviation of mechanical allodynia (von Frey),[21]; CN016 5 mg/kg IP 1 h prior to paclitaxel 4.5 mg/kg,only moderately alleviated
same,alleviation of paclitaxel-induced mechanical allodynia (von Frey),[21]; CN016 10 or 20 mg/kg IP 1 h prior to paclitaxel 4.5 mg/kg,able to alleviate
same,inhibition at 10 µM,[22],-3%
same,IC50,[23],> 100 µM
